Experimental data taken from patent publication US20210254056A1, “IDENTIFICATION AND TARGETED MODULATION OF GENE SIGNALING NETWORKS” (CAMP4 THERAPEUTICS CORPORATION, priority 2017, published 2021).
Where “and” joins values, the source holds several entries; their conditions need not be identical. Equal entries are not always repeated.

Tests used:
[1] = system: CB-CI-IRES-CD34+ primary cells; test: ATP cell viability assay (IC50) in CD34+ cells; conditions: for Amount of ATP, cell viability assay, Avg.: average of triplicate; for Amount of ATP, cell viability assay: single replicates 1-3
TF1 cells = test: ATP cell viability assay (IC50) in TF1 cells; conditions: for Amount of ATP, cell viability assay, Avg.: average; for Amount of ATP, cell viability assay: single replicates
hepatocytes [2] = system: hepatocytes;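 on qRT-PCR log2fc, CYP7A1: Compound-treated versus DMSO control, target Ct normalized to GAPDH or β-actin reference (ΔΔCt method), positive values mean higher expression than DMSO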
hepatocytes [3] = system: hepatocytes; remark: listed apart in the source;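 on qRT-PCR log2fc, CYP7A1: Compound-treated versus DMSO control, target Ct normalized to GAPDH or β-actin reference (ΔΔCt method), positive values mean higher expression than DMSO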

With `COc1ccc(C2=N[C@@H](c3ccc(Cl)cc3)[C@@H](c3ccc(Cl)cc3)N2C(=O)N2CCNC(=O)C2)c(OC(C)C)c1` [Nutlin 3a] the “Amount of ATP, cell viability assay, Avg.” value (shortened to “Amount of ATP … Avg.”) ([1]; 0.08625 μM) was 582565, the “Amount of ATP, cell viability assay” value ([1]; 0.08625 μM) was 588229 and 590199 and 569267 and the “Amount of ATP … Avg.” value ([1]; 0.7 μM) was 577863. The “Amount of ATP, cell viability assay” value ([1]; 0.7 μM) was 603745 and 579055 and 550788, the “Amount of ATP … Avg.” value ([1]; 3.125 μM) was 523052 and the “Amount of ATP, cell viability assay” value ([1]; 3.125 μM) was 539839 and 515592 and 513726. For the same molecule, the “Amount of ATP … Avg.” value ([1]; 6.252 μM) was 481328, the “Amount of ATP, cell viability assay” value ([1]; 6.252 μM) was 481101 and 491124 and 471758 and the “Amount of ATP … Avg.” value ([1]; 12.5 μM) was 457194. For the same molecule, the “Amount of ATP, cell viability assay” value ([1]; 12.5 μM) was 496305 and 442760 and 432516, the “Amount of ATP … Avg.” value ([1]; 25 μM) was 458416 and the “Amount of ATP, cell viability assay” value ([1]; 25 μM) was 465507 and 460965 and 448776. The “Amount of ATP … Avg.” value ([1]; 50 μM) was 449298, the “Amount of ATP, cell viability assay” value ([1]; 50 μM) was 463223 and 463614 and 421058 and the “Amount of ATP … Avg.” value ([1]; 100 μM) was 404620. The “Amount of ATP, cell viability assay” value ([1]; 100 μM) was 429802 and 424673 and 359384, the “Amount of ATP … Avg.” value (TF1 cells; 0.08625 μM) was 1380642 and the “Amount of ATP, cell viability assay” value (TF1 cells; 0.08625 μM) was 1477730 and 1426195 and 1238001. For the same molecule, the “Amount of ATP … Avg.” value (TF1 cells; 0.7 μM) was 1370746, the “Amount of ATP, cell viability assay” value (TF1 cells; 0.7 μM) was 1465593 and 1321104 and 1325541 and the “Amount of ATP … Avg.” value (TF1 cells; 3.125 μM) was 1387602. For the same molecule, the “Amount of ATP, cell viability assay” value (TF1 cells; 3.125 μM) was 1326585 and 1450508 and 1385714, the “Amount of ATP … Avg.” value (TF1 cells; 6.252 μM) was 1352389 and the “Amount of ATP, cell viability assay” value (TF1 cells; 6.252 μM) was 1460412 and 1231790 and 1364965. The “Amount of ATP … Avg.” value (TF1 cells; 12.5 μM) was 1377862, the “Amount of ATP, cell viability assay” value (TF1 cells; 12.5 μM) was 1340587 and 1403123 and 1389877 and the “Amount of ATP … Avg.” value (TF1 cells; 25 μM) was 1474911. The “Amount of ATP, cell viability assay” value (TF1 cells; 25 μM) was 1518028 and 1486252 and 1420453, the “Amount of ATP … Avg.” value (TF1 cells; 50 μM) was 1260586 and the “Amount of ATP, cell viability assay” value (TF1 cells; 50 μM) was 1246588 and 1204019 and 1331152. For the same molecule, the “Amount of ATP … Avg.” value (TF1 cells; 100 μM) was 25091 and the “Amount of ATP, cell viability assay” value (TF1 cells; 100 μM) was 23934 and 23542 and 27797.
`CO[C@H]1/C=C/O[C@@]2(C)Oc3c(C)c(O)c4c(O)c(c(/C=N/N5CCN(C)CC5)c(O)c4c3C2=O)NC(=O)/C(C)=C\C=C\[C@H](C)[C@H](O)[C@@H](C)[C@@H](O)[C@@H](C)[C@H](OC(C)=O)[C@@H]1C` [MT-901, Rifampicin] was tested, and the “Cuffdiff log2fc, CYP7A1” value (hepatocytes [2]) was −1.27 and the “qRT-PCR log2fc, CYP7A1” value (hepatocytes [3]) was −1.65.
